Experimental data: patent publication EP4603105A1, “PHARMACEUTICAL COMPOSITION CONTAINING CYCLIC COMPOUND HAVING SELECTIVE KRAS INHIBITORY EFFECT AGAINST HRAS AND NRAS” (CHUGAI SEIYAKU KABUSHIKI KAISHA, priority 2022, dated 2024)

Sequences of proteins named here, by UniProt entry; tags and fusion partners are left off. Residues count along the entry.
UniProt P01112, whole entry: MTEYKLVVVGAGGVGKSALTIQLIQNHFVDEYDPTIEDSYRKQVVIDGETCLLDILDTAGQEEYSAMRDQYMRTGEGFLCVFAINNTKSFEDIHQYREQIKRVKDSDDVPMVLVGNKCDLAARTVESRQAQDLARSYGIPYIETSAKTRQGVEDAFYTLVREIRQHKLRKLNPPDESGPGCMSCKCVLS
UniProt P01116, 1-188 isoform 2: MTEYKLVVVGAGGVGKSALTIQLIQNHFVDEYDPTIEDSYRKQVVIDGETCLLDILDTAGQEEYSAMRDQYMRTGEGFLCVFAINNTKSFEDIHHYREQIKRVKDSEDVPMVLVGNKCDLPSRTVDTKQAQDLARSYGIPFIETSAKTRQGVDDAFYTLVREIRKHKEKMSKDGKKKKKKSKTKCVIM
UniProt P01111, whole entry: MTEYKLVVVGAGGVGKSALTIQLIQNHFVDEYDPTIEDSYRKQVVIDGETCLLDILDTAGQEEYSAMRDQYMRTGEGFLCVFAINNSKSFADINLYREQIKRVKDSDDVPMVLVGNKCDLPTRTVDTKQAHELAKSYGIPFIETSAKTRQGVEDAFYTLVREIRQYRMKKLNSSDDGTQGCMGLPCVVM

How the values were obtained:
HRAS wild-type protein = HRAS wild-type protein (Homo sapiens, UniProt P01112); assay: Binding to HRAS by surface plasmon resonance (SPR), KD and KD ratio to KRAS
[1] = molecular target: GDP-bound KRAS wild-type protein (Homo sapiens, UniProt P01116); assay: Binding to KRAS by surface plasmon resonance (SPR), dissociation constant KD
[2] = molecular target: GDP-bound NRAS wild-type protein (Homo sapiens, UniProt P01111); assay: Binding to NRAS by surface plasmon resonance (SPR), KD and KD ratio to KRAS
[3] = tested on: human lung cancer strain NCI-H441; assay: NCI-H441 cell proliferation inhibitory activity (CellTiter-Glo, 4 days); assay type: cell-based
[4] = ratio of KD for HRAS wild-type protein to KD for KRAS
[5] = read-out: KRAS KD, 1:1 binding model
[6] = ratio of KD for GDP-bound NRAS wild-type protein to KD for KRAS
[7] = read-out: NCl-H441 IC50, NCI-H441 cells, 4 days
[8] = ratio of KD with respect to HRAS wild-type protein to KD with respect to KRAS
[9] = read-out: KRAS KD, Single Cycle Kinetics, 1:1 binding model
[10] = ratio of KD with respect to GDP-bound NRAS wild-type protein to KD with respect to KRAS
[11] = read-out: NCl-H441 IC50, 50% proliferation inhibitory concentration, four days

Kd [1, 5] [nM] | IC50 [3, 7] [nM] | Kd [1, 9] [nM] | IC50 [3, 11] [nM] | SMILES | HRAS /KRAS (HRAS wild-type protein; [4]) | NRAS /KRAS [2, 6] | HRAS /KRAS (HRAS wild-type protein; [8]) | NRAS /KRAS [2, 10]
8.2 | 206 |  |  | CCOC1CC2C(=O)NC3(CC(C)(C)C3)C(=O)N(C)C(C(CC)CC)C(=O)N(C)C(C(=O)N(C)C)CC(=O)N(C)C(COC)C(=O)NC(C(C)CC)C(=O)N(C3CC3)CC(=O)N(C)C3CC=CCCN(C3=O)C(CC3CCCCC3)C(=O)N(C)CC(=O)NC(CCc3ccc(Cl)c(Cl)c3)C(=O)N2C1 (centres unmarked) | A (a compound having 10 or more and less than 20 is denoted as A) | A (a compound having 10 or more and less than 20 is denoted as A) |  | 
 |  | 0.72 | 80.4 | CC[C@H](C)[C@@H]1NC(=O)[C@H](CC)N(C)C(=O)C[C@@H](C(=O)N2CCOCC2)N(C)C(=O)[C@H](C2CCCC2)N(C)C(=O)C2(CCC2)NC(=O)[C@@H]2CCCN2C(=O)[C@H](CCc2cc(F)c(C(F)(F)F)c(F)c2)NC(=O)CN(C)C(=O)[C@H](Cc2ccc(C(F)(F)F)cc2)N2C[C@H](C)CC[C@@H](C2=O)N(C)C(=O)[C@@H]2CCN2C1=O |  |  | B (a compound having 3 or more and less than 10 is denoted as B) | B (a compound having 3 or more and less than 10 is denoted as B)
0.064 | 4.4 |  |  | CCOC[C@H]1C(=O)N[C@@H]([C@@H](C)CC)C(=O)N(C2CC2)CC(=O)N(C)[C@H]2C/C=C\CCN(C2=O)[C@@H](Cc2ccc(C(F)(F)F)cc2)C(=O)N(C)CC(=O)N[C@@H](CCc2ccc(C(F)(F)F)c(OC)c2)C(=O)N2C[C@@H](C)C[C@H]2C(=O)N(C)C2(CCC2)C(=O)N(C)[C@@H](C2CCCC2)C(=O)N(C)[C@H](C(=O)N(C)C)CC(=O)N1C | A (a compound having 10 or more and less than 20 is denoted as A) | A (a compound having 10 or more and less than 20 is denoted as A) |  | 
0.62 | 93.6 |  |  | CCCOC[C@H]1C(=O)N[C@@H]([C@@H](C)CC)C(=O)N(C)CC(=O)N(C)[C@H]2C/C=C\CCN(C2=O)[C@H](Cc2ccc(C)cc2)C(=O)N(C)CC(=O)N[C@@H](CCc2ccc(Cl)c(Cl)c2)C(=O)N2C[C@H](OCC)C[C@@H]2C(=O)NC2(CC(C)(C)C2)C(=O)N(C)[C@@H](CC2CCC2)C(=O)N(C)[C@@H](C(=O)N(C)C)CC(=O)N1C | A (a compound having 10 or more and less than 20 is denoted as A) | A (a compound having 10 or more and less than 20 is denoted as A) |  | 
 |  | 0.045 | 4.1 | CCO[C@@H]1C[C@H]2C(=O)NC3(CCCC3)C(=O)N(C)[C@@H](C3CCCC3)C(=O)N(C)[C@H](C(=O)N(C)C)CC(=O)N(C)[C@@H](CC3CC3)C(=O)N[C@@H]([C@@H](C)CC)C(=O)N(C)CC(=O)N(C)[C@H]3CC[C@@H](C)CN(C3=O)[C@@H](Cc3ccc(C(F)(F)F)cc3)C(=O)N(C)CC(=O)N[C@@H](CCc3ccc(C(F)(F)F)c(Cl)c3)C(=O)N2C1 |  |  | B (a compound having 3 or more and less than 10 is denoted as B) | B (a compound having 3 or more and less than 10 is denoted as B)
 |  | 1.2 | 198 | CC[C@H](C)[C@@H]1NC(=O)[C@H](CC(C)C)N(C)C(=O)C[C@@H](C(=O)N2CCOCC2)N(C)C(=O)[C@H](C2CCCC2)N(C)C(=O)C2(CCC2)NC(=O)[C@@H]2C[C@@H](OCC(C)C)CN2C(=O)[C@H](CCc2cc(F)c(C(F)(F)F)c(F)c2)NC(=O)CN(C)C(=O)[C@H](Cc2ccc(C(F)(F)F)cc2)N2CCCCC[C@@H](C2=O)N(C)C(=O)CN(C)C1=O |  |  | B (a compound having 3 or more and less than 10 is denoted as B) | B (a compound having 3 or more and less than 10 is denoted as B)
 |  | 1.6 | 55.1 | CCOC1CC2C(=O)NC3(CCC3)C(=O)N(C)C(C(CC)CC)C(=O)N(C)C(C(=O)N(C)C)CC(=O)N(C)C(CC3CCCC3)C(=O)NC(C(C)CC)C(=O)N(C)CC(=O)N(C)C3CC=CCCN(C3=O)C(Cc3ccc(C(F)(F)F)cc3)C(=O)N(C)CC(=O)NC(CCc3ccc4sccc4c3)C(=O)N2C1 (centres unmarked) |  |  | A (a compound having 10 or more and less than 20 is denoted as A) | AA (a compound having 20 or more is denoted as AA)
1.2 | 57.1 |  |  | CCCOC[C@H]1C(=O)N[C@@H]([C@@H](C)CC)C(=O)N(C)CC(=O)N(C)[C@H]2C/C=C\CCN(C2=O)[C@H](Cc2ccc(C)cc2)C(=O)N(C)CC(=O)N[C@H](CCc2ccc(C(F)(F)F)c(OC)c2)C(=O)N2C[C@H](OCC)C[C@@H]2C(=O)NC2(CC(C)(C)C2)C(=O)N(C)[C@@H](CC2CCC2)C(=O)N(C)[C@@H](C(=O)N(C)C)CC(=O)N1C | A (a compound having 10 or more and less than 20 is denoted as A) | A (a compound having 10 or more and less than 20 is denoted as A) |  | 
 |  | 0.22 | 4.9 | CCO[C@@H]1C[C@H]2C(=O)NC3(CCC3)C(=O)N(C)[C@@H](C3CCCC3)C(=O)N(C)[C@H](C(=O)N3CCCCC3)CC(=O)N(C)[C@@H](CC(F)F)C(=O)N[C@@H]([C@@H](C)CC)C(=O)N(C)CC(=O)N(C)[C@H]3C/C=C\CCN(C3=O)[C@@H](Cc3ccc(C(F)(F)F)cc3)C(=O)N(C)CC(=O)N[C@@H](CCc3cc(F)c(C(F)(F)F)c(F)c3)C(=O)N2C1 |  |  | A (a compound having 10 or more and less than 20 is denoted as A) | AA (a compound having 20 or more is denoted as AA)
4.3 | 91.1 |  |  | CCCC1C(=O)NC(C(C)CC)C(=O)N(C2CC2)CC(=O)N(C)C2CC=CCCN(C2=O)C(Cc2ccc(C)cc2)C(=O)N(C)CC(=O)NC(CCc2cc(F)c(C(F)(F)F)c(F)c2)C(=O)N2CC(OCC)CC2C(=O)NC2(CC(C)(C)C2)C(=O)N(C)C(CC2CCC2)C(=O)N(C)C(C(=O)N(C)C)CC(=O)N1C (centres unmarked) | A (a compound having 10 or more and less than 20 is denoted as A) | A (a compound having 10 or more and less than 20 is denoted as A) |  | 
0.98 | 42.2 |  |  | CCC(C)C1NC(=O)C(COC)N(C)C(=O)CC(C(=O)N(C)C)N(C)C(=O)C(C(CC)CC)N(C)C(=O)C2(CC(C)(C)C2)NC(=O)C2CC(OC3CCCC3)CN2C(=O)C(CCc2ccc(Cl)c(Cl)c2)NC(=O)CN(C)C(=O)C(Cc2ccc(C)cc2)N2CCC=CCC(C2=O)N(C)C(=O)CN(C)C1=O (centres unmarked) | A (a compound having 10 or more and less than 20 is denoted as A) | AA (a compound having 20 or more is denoted as AA) |  | 
 |  | 0.033 | 1.9 | CCO[C@@H]1C[C@H]2C(=O)NC3(CCCC3)C(=O)N(C)[C@@H](C3CCCC3)C(=O)N(C)[C@H](C(=O)N(C)C)CC(=O)N(C)[C@@H](CC3CC3)C(=O)N[C@@H]([C@@H](C)CC)C(=O)N(C)CC(=O)N(C)[C@H]3CC[C@@H](C)CN(C3=O)[C@@H](Cc3ccc(C(F)(F)F)cc3)C(=O)N(C)CC(=O)N[C@@H](CCc3cc(F)c(C(F)(F)F)c(F)c3)C(=O)N2C1 |  |  | B (a compound having 3 or more and less than 10 is denoted as B) | B (a compound having 3 or more and less than 10 is denoted as B)
 |  | 0.08 | 134 | CCOC1CC2C(=O)NC3(CCC3)C(=O)N(C)C(C3CCCC3)C(=O)N(C)C(C(=O)N3CCOCC3)CC(=O)N(C)C(Cc3cccnc3)C(=O)NC(C(C)CC)C(=O)N(C)CC(=O)N(C)C3CCCCCN(C3=O)C(Cc3ccc(F)cc3)C(=O)N(C)CC(=O)NC(CCc3cc(F)c(C(F)(F)F)c(F)c3)C(=O)N2C1 (centres unmarked) |  |  | B (a compound having 3 or more and less than 10 is denoted as B) | B (a compound having 3 or more and less than 10 is denoted as B)
0.13 | 9.1 |  |  | CCOC[C@H]1C(=O)N[C@@H]([C@@H](C)CC)C(=O)N(C)CC(=O)N(C)[C@H]2C/C=C\CCN(C2=O)[C@@H](Cc2ccc(C)cc2)C(=O)N(C)CC(=O)N[C@@H](CCc2ccc(C(F)(F)F)c(OC)c2)C(=O)N2C[C@@H](C)C[C@H]2C(=O)NC2(CC(C)(C)C2)C(=O)N(C)[C@@H](C2CCCC2)C(=O)N(C)[C@H](C(=O)N(C)CC)CC(=O)N1C | A (a compound having 10 or more and less than 20 is denoted as A) | A (a compound having 10 or more and less than 20 is denoted as A) |  | 
 |  | 0.19 | 21.3 | CCC[C@H]1C(=O)N[C@@H]([C@@H](C)CC)C(=O)N(C)CC(=O)N(C)[C@H]2C/C=C\CCN(C2=O)[C@@H](Cc2ccc(C(F)(F)F)cc2)C(=O)N(C)CC(=O)N[C@@H](CCc2cc(F)c(C(F)(F)F)c(F)c2)C(=O)N2C[C@H](OCC)C[C@H]2C(=O)NC2(CCC2)C(=O)N(C)[C@@H](C(CC)CC)C(=O)N(C)[C@H](C(=O)N(C)C)CC(=O)N1C |  |  | A (a compound having 10 or more and less than 20 is denoted as A) | AA (a compound having 20 or more is denoted as AA)
3.6 | 185 |  |  | CCCC1C(=O)NC(CC(C)C)C(=O)N(C2CC2)CC(=O)N(C)C2CC=CCCN(C2=O)C(Cc2ccc(C)cc2)C(=O)N(C)CC(=O)NC(CCc2ccc(C(F)(F)F)c(Cl)c2)C(=O)N2CC(OCC)CC2C(=O)NC2(CC(C)(C)C2)C(=O)N(C)C(C2CCCC2)C(=O)N(C)C(C(=O)N(C)C)CC(=O)N1C (centres unmarked) | B (a compound having 3 or more and less than 10 is denoted as B) | A (a compound having 10 or more and less than 20 is denoted as A) |  | 
 |  | 0.3 | 27.9 | CCOC1CC2C(=O)NC3(CCC3)C(=O)N(C)C(C3CCCC3)C(=O)N(C)C(C(=O)N3CCCC3)CC(=O)N(C)C(CC3CCCCC3)C(=O)NC(C(C)CC)C(=O)N(C)CC(=O)N(C)C3CC=CCCN(C3=O)C(Cc3ccc(C)cc3)C(=O)N(C)CC(=O)NC(CCc3cc(F)c(C(F)(F)F)c(F)c3)C(=O)N2C1 (centres unmarked) |  |  | A (a compound having 10 or more and less than 20 is denoted as A) | A (a compound having 10 or more and less than 20 is denoted as A)

Read-outs that look alike come from different tables or passages of the source.
